Source: the NIST ThermoML archive (doi:10.1021/je049943s)

Details: 298.15 K; 101.33 kPa; Liquid

OCCOCCOCCOCCO [tetraethylene glycol]
mass density: 1120.09 ± 0.59 kg/m3

Numbers after ± are expanded uncertainties.
